Laboratory results: PubChem BioAssay AID750 (Sanford-Burnham Center for Chemical Genomics, 2007)
The list shows a part of the results, in another mix than the full data. The source made the active and inactive calls.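 Rule for the calls: active = activation factor of at least 2 for MT1-MMP transcription at 10 µM; inactive = the rest.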

Assay: MT1-MMP promoter reporter activation – cell-based, luciferase luminescence, primary screen (AID 750)
Details: HT1080 MT1-MMP promoter luciferase reporter, overnight, at 10 µM, hits give high values

| SMILES | activation factor |
| --- | --- |
| COc1ccc(OP(C)(=O)Nc2ccccn2)cc1 (configuration not stated) | inactive: 1 |
| CN(C)CCOC(=O)C(O)(c1ccccc1)C1CCCC1 (configuration not stated) | inactive: 1.1 |
| CP(=O)(Nc1ccccn1)Oc1ccccc1 (configuration not stated) | inactive: 1.1 |
| COc1ccccc1OP(C)(=O)Nc1ccc(C)cc1C (configuration not stated) | inactive: 1.1 |
| CCc1ccc(OP(C)(=O)O)cc1 | inactive: 1 |
| Cc1c(NP(C)(=O)Oc2ccc(C(C)C)cc2)c(=O)n(-c2ccccc2)n1C (configuration not stated) | inactive: 1.1 |
| COc1ccccc1OP(C)(=O)Nc1ccc(C)c(C)c1 (configuration not stated) | inactive: 1.2 |
| Cc1nc2ccc3ccccc3c2o1.O=[N+]([O-])c1cc([N+](=O)[O-])c(O)c([N+](=O)[O-])c1 | inactive: 1.6 |
| CP(=O)(OC12CC3CC(CC(C3)C1)C2)OC12CC3CC(CC(C3)C1)C2 | inactive: 1 |
| COc1ccccc1OP(C)(=O)Nc1c(C)n(C)n(-c2ccccc2)c1=O (configuration not stated) | inactive: 1.1 |
| CP(=O)(Oc1ccccc1)N1CCOC1=O (configuration not stated) | inactive: 1.1 |
| CCN(CC)CC(O)COC(=O)C(O)(c1ccccc1)C1CCCCC1 (configuration not stated) | inactive: 1.2 |
| CC(C)(C)c1ccc(OP(C)(=O)O)cc1 | inactive: 1.3 |
| CP(=O)(Nc1ccc(Cl)cc1)Oc1ccc(F)cc1 (configuration not stated) | inactive: 1 |
| CCOP(C)(=S)SCC(=O)NC(C)(CC)C(=O)O (configuration not stated) | inactive: 1.2 |
| Cc1ccccc1NP(C)(=O)Nc1ccccc1C | inactive: 1.2 |

| SMILES | activation factor |
| --- | --- |
| CP(=O)(Nc1ccc2c(c1)OCCO2)Oc1ccccc1 (configuration not stated) | inactive: 1.2 |
| CN(C)CCOC(=O)C(O)(c1ccccc1)C1CCCCC1 (configuration not stated) | inactive: 1 |
| CP(=O)(Nc1ccccc1)Oc1ccc(F)cc1 (configuration not stated) | inactive: 1.1 |
| CCN(CC)CCCOC(=O)C(O)(c1ccccc1)C1CCCCC1 (configuration not stated) | inactive: 1.2 |
| CP(=O)(Nc1ccccc1F)Oc1ccccc1 (configuration not stated) | inactive: 1 |
| Cc1ccc(C)c(NP(C)(=O)Oc2ccccc2)c1 (configuration not stated) | inactive: 1.2 |
| Cc1cc(C)cc(OP(C)(=O)Nc2ccccn2)c1 (configuration not stated) | inactive: 1.1 |
| COc1ccccc1OP(C)(=O)Nc1c(C)cccc1C (configuration not stated) | inactive: 1 |
| Cc1nc2ccc3ccccc3c2s1.O=[N+]([O-])c1cc([N+](=O)[O-])c(O)c([N+](=O)[O-])c1 | inactive: 1.1 |
| CP(=O)(NC(=O)Nc1ccccc1)Oc1ccccc1 (configuration not stated) | inactive: 1.2 |
| CP(=O)(Nc1ccccn1)Oc1ccc(Cl)cc1 (configuration not stated) | inactive: 1.1 |
| CCOP(C)(=S)SCC(=O)NC(C)C(=O)O (configuration not stated) | inactive: 1.2 |
| CP(=S)(Nn1cnnc1)Oc1ccccc1 (configuration not stated) | inactive: 1.2 |
| COc1ccc(OP(C)(=O)Nc2cccc(F)c2)cc1 (configuration not stated) | inactive: 1.2 |
| COc1ccccc1OP(C)(=O)Nc1ccc(C)cc1 (configuration not stated) | inactive: 1.2 |
| Cc1ccc(NP(C)(=O)Oc2ccccc2)c(C)c1 (configuration not stated) | inactive: 1.2 |
